According to patent US20260152497A1, “MIDAZO[4,5-c]QUINOLINE-4-AMINE COMPOUNDS AND CONJUGATES THEREOF, THEIR PREPARATION, AND THEIR [sequence] APPLICATIONS” (SANOFI, priority 2021, published 2026):

Molecular target: T1, human TLR7 (Homo sapiens, UniProt Q9NYK1)
T1 construct: host or cells: HEK293 (HEK-Blue hTLR7); engineered variants additionally transfected with tumor antigen genes
T1 sequence (Q9NYK1 27-1049): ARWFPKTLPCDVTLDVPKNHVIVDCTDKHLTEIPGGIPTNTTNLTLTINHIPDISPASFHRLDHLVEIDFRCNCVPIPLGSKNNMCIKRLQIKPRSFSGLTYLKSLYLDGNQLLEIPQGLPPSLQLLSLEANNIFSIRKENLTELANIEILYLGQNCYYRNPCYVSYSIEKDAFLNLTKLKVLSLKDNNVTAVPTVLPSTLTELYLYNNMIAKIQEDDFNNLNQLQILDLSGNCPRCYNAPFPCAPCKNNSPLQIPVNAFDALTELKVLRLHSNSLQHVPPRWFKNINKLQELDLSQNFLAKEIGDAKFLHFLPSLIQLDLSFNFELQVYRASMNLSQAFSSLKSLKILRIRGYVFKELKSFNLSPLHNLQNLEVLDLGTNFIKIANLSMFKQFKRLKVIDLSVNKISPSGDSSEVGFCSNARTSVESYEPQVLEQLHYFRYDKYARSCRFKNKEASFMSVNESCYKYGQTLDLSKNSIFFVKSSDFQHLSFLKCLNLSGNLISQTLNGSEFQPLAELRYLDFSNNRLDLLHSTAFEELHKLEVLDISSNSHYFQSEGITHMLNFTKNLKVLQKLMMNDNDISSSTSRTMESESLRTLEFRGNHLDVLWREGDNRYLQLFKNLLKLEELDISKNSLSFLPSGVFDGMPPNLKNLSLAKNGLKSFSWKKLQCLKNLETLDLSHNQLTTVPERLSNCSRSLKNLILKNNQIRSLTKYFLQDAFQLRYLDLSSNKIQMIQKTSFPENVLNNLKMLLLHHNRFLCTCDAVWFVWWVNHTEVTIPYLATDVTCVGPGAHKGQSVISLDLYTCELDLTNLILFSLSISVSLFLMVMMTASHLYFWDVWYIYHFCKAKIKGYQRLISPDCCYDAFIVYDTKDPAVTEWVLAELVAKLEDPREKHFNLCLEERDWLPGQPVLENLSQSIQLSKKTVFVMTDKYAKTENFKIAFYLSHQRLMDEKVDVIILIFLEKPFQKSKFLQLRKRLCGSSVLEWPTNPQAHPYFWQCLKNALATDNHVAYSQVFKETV
Experiment: TLR7 pathway activation, parental HEK-Blue hTLR7 reporter cells (SEAP)
Assay type: cell-based
Conditions: Table 1a, 96 hours, read-out: EC50 HEKBlue-hTLR7
Method: The below tests involving measuring the in vitro activity of some compounds of the disclosure on human TLR7 pathway were carried out using parental HEK-Blue™ hTLR7 cells and engineered tumor antigen-expressing HEK-Blue™ hTLR7 cells respectively as reporter cells.
HEK-Blue™ hTLR7 Cells (#hkb-htlr7) and HEK-Blue™ hTLR8 Cells (#hkb-htlr8) cells from InvivoGen and the engineered tumor antigen expressing cells were used according to the manufacturer's instructions. The HEK-Blue™ hTLR7 and HEK-Blue™ hTLR8 cells were obtained by co-transfection of the hTLR7 or hTLR8 gene in HEK293 cells and an optimized Secreted Embryonic Alkaline Phosphatase (SEAP) reporter gene which is placed under the control of the IFN-β minimal promoter fused to five NF-κB and AP-1-binding sites. The human tumor antigen expressing HEK-Blue™ hTLR7 and hTLR8 cells were obtained by transfection of the tumor antigen genes in the parental cells followed by a polyclonal selection to enrich in cells overexpressing the tumor antigen. Stimulation with a TLR7/8 ligand activates NF-kB and AP-1 which induce the production of SLAP. The cells are seeded in 96-well plate at 3.10E4 cells/well and incubated 24 hours at 37C, 5% CO2 before adding the conjugates to be evaluated. The cells are subsequently incubated with 3-fold serial dilutions of each of the compounds (0.01 nM to 1 μM) for 96 hours at 37° C., 5% CO2. Next, 20 μL of the supernatant is harvested and incubated with 200 μL of QUANTI-Blue™ Solution.

“EGFR_cetuximab-PEG4-R848 ADC [Example 5]” gave an EC50 of over 1000 nM.
In the case of “EGFR_cetuximab-PEG8-R848 ADC [Example 11]”, the EC50 is reported as over 1000 nM.
Work on “EGFR_cetuximab-PEG12-R848 ADC [Example 17]” yielded an EC50 of over 1000 nM.
Work on “HER2_trastuzumab-PEG4-R848 ADC [Example 4]” yielded an EC50 of over 1000 nM.
“HER2_trastuzumab-PEG8-R848 ADC [Example 10]” gave an EC50 of over 1000 nM.
“HER2_trastuzumab-PEG12-R848 ADC [Example 16]” gave an EC50 of over 1000 nM.
“HER2_trastuzumab-PEG24-R848 ADC [Example 22]” was tested, and the EC50 was over 1000 nM.
